Results as given in ChEMBL document CHEMBL5500411, “Discovery of Dual MER/AXL Kinase Inhibitors as Bifunctional Small Molecules for Inhibiting Tumor Growth and Enhancing Tumor Immune Microenvironment” (J Med Chem, 2024).

Protein sequences, listed by entry. Tags and fused reporters are not part of them. Lines headed by an entry give the natural chain unless they say otherwise; changes in a name come on top.
UniProt P36888, whole entry: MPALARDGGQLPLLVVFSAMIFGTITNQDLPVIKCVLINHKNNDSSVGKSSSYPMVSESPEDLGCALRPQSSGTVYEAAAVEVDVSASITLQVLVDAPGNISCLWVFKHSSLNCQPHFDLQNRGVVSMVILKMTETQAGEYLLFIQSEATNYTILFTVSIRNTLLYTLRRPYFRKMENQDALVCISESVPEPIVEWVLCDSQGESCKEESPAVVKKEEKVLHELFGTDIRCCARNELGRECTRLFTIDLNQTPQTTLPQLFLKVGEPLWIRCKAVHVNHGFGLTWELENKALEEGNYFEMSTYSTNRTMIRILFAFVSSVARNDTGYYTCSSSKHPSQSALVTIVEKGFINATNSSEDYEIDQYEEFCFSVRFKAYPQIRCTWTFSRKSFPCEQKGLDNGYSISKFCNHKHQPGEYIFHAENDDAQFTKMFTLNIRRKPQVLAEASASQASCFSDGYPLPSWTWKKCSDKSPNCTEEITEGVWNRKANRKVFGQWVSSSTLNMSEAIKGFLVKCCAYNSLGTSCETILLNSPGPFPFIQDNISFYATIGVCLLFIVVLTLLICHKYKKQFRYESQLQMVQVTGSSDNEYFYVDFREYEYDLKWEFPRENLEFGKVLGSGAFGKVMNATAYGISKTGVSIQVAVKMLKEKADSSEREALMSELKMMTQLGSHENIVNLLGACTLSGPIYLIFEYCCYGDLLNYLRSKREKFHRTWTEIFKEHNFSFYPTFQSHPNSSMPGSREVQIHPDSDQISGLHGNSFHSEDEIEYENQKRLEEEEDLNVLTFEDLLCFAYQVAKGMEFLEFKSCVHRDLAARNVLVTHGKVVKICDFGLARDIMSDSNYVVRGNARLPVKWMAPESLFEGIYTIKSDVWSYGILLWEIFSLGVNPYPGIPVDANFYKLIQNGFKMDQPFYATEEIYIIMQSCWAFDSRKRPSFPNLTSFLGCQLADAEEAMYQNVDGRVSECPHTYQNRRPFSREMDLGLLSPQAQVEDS
UniProt P10721, whole entry: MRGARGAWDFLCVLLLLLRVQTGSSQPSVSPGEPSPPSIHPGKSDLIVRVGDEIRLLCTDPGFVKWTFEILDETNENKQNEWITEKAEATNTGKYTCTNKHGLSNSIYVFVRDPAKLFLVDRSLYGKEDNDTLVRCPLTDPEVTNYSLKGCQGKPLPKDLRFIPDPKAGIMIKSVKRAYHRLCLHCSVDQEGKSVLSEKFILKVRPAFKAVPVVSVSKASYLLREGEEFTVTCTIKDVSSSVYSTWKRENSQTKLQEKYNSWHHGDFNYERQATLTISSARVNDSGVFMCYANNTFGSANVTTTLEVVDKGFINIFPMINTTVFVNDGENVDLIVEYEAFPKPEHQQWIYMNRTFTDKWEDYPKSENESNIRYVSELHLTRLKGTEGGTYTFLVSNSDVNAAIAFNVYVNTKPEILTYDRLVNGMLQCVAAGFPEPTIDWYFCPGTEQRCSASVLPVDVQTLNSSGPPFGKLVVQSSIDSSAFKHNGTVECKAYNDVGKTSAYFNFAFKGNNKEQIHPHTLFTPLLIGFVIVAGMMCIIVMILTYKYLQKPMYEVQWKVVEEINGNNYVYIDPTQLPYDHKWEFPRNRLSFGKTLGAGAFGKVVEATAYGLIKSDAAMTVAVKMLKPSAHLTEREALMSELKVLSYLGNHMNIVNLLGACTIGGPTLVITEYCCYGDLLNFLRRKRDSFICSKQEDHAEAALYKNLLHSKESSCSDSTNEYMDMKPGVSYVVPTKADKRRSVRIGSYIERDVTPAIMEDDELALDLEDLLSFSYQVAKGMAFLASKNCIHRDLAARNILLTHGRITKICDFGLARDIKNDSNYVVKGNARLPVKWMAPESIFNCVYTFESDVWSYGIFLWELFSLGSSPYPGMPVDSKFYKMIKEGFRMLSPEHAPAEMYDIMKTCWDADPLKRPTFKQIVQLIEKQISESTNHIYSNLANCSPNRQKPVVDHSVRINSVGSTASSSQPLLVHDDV
UniProt P04629: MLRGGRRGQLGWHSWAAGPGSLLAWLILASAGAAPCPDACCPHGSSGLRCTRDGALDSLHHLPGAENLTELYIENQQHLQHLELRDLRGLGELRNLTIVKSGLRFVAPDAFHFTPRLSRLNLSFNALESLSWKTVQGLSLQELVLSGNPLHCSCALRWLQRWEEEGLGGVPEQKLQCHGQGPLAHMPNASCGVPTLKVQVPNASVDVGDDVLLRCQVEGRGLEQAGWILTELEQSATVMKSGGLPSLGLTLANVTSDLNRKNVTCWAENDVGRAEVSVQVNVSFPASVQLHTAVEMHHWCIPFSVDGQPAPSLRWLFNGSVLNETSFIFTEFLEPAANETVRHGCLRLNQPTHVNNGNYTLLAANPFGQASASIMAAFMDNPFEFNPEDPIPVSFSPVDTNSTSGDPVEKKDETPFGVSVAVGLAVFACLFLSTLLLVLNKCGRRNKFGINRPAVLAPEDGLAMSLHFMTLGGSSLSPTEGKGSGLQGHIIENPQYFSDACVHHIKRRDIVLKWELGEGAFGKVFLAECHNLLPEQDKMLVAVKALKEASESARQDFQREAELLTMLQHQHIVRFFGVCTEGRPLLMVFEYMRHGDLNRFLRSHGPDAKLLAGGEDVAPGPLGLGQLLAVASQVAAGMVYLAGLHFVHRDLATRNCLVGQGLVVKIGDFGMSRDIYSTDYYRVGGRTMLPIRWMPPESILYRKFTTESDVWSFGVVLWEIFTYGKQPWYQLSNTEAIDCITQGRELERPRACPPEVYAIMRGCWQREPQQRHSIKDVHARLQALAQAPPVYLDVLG
UniProt Q16620, whole entry, looked up: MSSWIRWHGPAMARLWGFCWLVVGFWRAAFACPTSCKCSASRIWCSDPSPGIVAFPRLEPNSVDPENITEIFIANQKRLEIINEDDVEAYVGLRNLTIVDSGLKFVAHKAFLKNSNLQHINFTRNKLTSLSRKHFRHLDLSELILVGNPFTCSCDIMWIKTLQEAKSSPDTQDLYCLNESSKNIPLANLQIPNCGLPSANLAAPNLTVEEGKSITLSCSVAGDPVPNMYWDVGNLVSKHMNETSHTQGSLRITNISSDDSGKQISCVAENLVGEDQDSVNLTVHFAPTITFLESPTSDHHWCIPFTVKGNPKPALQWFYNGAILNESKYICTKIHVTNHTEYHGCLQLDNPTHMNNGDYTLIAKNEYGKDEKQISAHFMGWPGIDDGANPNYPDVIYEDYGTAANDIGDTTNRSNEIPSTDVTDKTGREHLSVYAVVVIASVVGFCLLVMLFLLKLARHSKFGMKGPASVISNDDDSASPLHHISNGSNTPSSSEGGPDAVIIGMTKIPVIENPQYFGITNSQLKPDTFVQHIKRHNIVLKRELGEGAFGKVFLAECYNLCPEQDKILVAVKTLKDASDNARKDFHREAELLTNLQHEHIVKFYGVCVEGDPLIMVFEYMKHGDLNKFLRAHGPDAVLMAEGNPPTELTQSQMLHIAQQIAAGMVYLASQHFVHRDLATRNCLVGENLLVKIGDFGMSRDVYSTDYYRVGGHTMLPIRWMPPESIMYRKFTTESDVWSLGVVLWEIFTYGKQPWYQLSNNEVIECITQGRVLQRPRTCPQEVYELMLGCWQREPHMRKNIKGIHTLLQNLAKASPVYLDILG
UniProt Q16288, whole entry, looked up: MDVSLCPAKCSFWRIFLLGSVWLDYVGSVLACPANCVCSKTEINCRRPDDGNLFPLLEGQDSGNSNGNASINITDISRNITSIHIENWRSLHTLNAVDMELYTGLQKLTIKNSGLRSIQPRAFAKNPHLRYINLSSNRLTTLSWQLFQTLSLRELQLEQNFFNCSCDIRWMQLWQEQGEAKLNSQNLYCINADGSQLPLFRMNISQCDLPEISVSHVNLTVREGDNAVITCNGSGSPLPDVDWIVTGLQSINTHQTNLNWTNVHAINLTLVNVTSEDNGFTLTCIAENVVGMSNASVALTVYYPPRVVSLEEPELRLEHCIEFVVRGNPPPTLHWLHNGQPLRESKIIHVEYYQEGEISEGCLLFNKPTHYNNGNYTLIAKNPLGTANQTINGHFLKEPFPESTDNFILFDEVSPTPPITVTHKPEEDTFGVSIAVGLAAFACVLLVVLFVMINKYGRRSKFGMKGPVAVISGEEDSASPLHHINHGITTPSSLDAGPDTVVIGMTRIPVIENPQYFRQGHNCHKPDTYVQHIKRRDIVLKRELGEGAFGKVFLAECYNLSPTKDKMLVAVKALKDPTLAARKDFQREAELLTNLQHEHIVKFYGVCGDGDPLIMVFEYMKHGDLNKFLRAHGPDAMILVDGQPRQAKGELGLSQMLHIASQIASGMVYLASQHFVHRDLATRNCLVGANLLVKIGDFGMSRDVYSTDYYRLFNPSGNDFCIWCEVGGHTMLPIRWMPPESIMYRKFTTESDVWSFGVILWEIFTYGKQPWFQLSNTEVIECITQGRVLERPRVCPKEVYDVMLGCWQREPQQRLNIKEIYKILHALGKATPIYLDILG

Columns and labels:
[1] = molecular target: Receptor-type tyrosine-protein kinase FLT3 (Homo sapiens) (UniProt P36888); assay: Inhibition of human FLT3 at 1 uM by radioactive HotSpot kinase assay
[2] = molecular target: Mast/stem cell growth factor receptor Kit (Homo sapiens) (UniProt P10721); assay: Inhibition of human c-KIT at 1 uM by radioactive HotSpot kinase assay
[3] = molecular target: High affinity nerve growth factor receptor (Homo sapiens) (UniProt P04629); assay: Inhibition of human TRKA at 1 uM by radioactive HotSpot kinase assay
[4] = molecular target: BDNF/NT-3 growth factors receptor (Homo sapiens) (UniProt Q16620); assay: Inhibition of human TRKB at 1 uM by radioactive HotSpot kinase assay
[5] = molecular target: NT-3 growth factor receptor (Homo sapiens) (UniProt Q16288); assay: Inhibition of human TRKC at 1 uM by radioactive HotSpot kinase assay

Measured: inhibition

CN(C)Cc1cccc(-c2c(-c3cnn(C)c3)oc3ncnc(Oc4ccc(NC(=O)c5cccn(-c6ccc(F)cc6)c5=O)cc4)c23)c1
active: all assays above

Calls of active or inactive are those of the source.
